Reference: patent US6936585B2, “Corticotropin releasing factor 2 receptor agonists” (priority 2002, dated 2005)

Key:
CRF2R = molecular target: T1, CRF2R (Homo sapiens, UniProt Q13324); experiment: CRF2R agonist activation (EC50 / Emax), called comparative CRF binding; assay type: cell-based; conditions: for Emax: read-out: CRF2R Emax
T1 sequence (Q13324 1-411): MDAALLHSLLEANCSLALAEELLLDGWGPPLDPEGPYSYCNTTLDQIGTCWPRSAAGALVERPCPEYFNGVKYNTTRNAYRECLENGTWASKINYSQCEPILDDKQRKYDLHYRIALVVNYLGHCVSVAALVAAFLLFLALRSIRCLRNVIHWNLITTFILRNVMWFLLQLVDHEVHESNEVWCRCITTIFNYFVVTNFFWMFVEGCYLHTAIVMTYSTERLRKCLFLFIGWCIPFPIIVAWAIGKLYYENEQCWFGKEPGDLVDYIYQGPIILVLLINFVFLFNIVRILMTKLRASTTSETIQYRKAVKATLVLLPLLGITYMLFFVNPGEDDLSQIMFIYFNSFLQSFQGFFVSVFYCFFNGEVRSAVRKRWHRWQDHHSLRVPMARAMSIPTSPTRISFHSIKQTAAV
Method in brief: (§1)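 Receptor-expressing cells are contacted with test peptide or the vehicle it is dissolved in. Lysates are then assayed for cAMP, or expression of a CRE-coupled reporter is quantitated. Engineered cells carrying receptor-G-protein fusions may replace full-length receptors.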

CRF1R = molecular target: T2, CRF1R (Homo sapiens, UniProt P34998); experiment: CRF1R agonist activation (EC50 / Emax), called comparative CRF binding; assay type: cell-based; conditions: for Emax: read-out: CRF1R Emax; for EC50: CRF1R EC50
T2 sequence (P34998 24-415): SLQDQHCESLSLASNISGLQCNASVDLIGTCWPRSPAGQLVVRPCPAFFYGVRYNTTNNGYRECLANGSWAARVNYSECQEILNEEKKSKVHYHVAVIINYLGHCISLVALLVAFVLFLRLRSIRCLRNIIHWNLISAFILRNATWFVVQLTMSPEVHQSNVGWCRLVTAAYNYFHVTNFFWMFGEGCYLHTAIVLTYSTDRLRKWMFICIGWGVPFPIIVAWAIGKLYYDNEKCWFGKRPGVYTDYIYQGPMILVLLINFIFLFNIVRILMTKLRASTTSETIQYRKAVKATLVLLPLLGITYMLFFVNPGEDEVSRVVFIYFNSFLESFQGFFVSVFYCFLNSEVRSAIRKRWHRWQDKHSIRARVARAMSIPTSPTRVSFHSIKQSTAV
Method in brief: as §1

Compound `CC[C@H](C)[C@H](NC(=O)[C@@H](NC(=O)[C@H](CC(=O)O)NC(=O)[C@H](CC(C)C)NC(=O)[C@H](CC(C)C)NC(=O)[C@H](CC(C)C)NC(=O)[C@H](CCCNC(=N)N)NC(=O)[C@H](CC(N)=O)NC(=O)[C@H](CC(N)=O)NC(=O)[C@H](C)NC(=O)[C@H](C)NC(=O)[C@H](CCC(N)=O)NC(=O)[C@H](CCC(N)=O)NC(=O)[C@H](CCCCN)NC(=O)[C@H](CCC(=O)O)NC(=O)[C@H](CCCCN)NC(=O)[C@H](CCC(=O)O)NC(=O)[C@H](CCC(N)=O)NC(=O)[C@H](CCCCN)NC(=O)[C@H](CCC(=O)O)NC(=O)[C@@H](NC(=O)[C@H](CCC(=O)O)NC(=O)[C@@H](NC(=O)[C@H](CCSC)NC(=O)[C@H](CCCCN)NC(=O)[C@H](CCCNC(=N)N)NC(=O)[C@H](CC(C)C)NC(=O)[C@H](CC(C)C)NC(=O)[C@H](CCCCN)NC(=O)[C@@H](NC(=O)[C@@H]1CCCN1C(=O)[C@H](CC(C)C)NC(=O)[C@H](CC(=O)O)NC(=O)[C@@H](NC(=O)[C@H](CO)NC(=O)[C@@H](NC(=O)[C@@H]1CCCN1C(=O)[C@@H]1CCCN1C(=O)CNC(=O)[C@@H]1CCC(=O)N1)[C@@H](C)CC)[C@@H](C)CC)[C@@H](C)CC)[C@@H](C)CC)[C@@H](C)CC)[C@@H](C)O)C(N)=O` [compound 34] has an Emax (CRF2R) of 45% and an Emax (CRF1R) of 11%.
`CC[C@H](C)[C@H](NC(=O)[C@@H](NC(=O)[C@H](CC(=O)O)NC(=O)[C@H](CC(C)C)NC(=O)[C@H](CC(C)C)NC(=O)[C@H](CC(C)C)NC(=O)[C@H](CCCNC(=N)N)NC(=O)[C@H](CC(N)=O)NC(=O)[C@H](CC(N)=O)NC(=O)[C@H](C)NC(=O)[C@H](C)NC(=O)[C@H](CCC(N)=O)NC(=O)[C@H](CCC(N)=O)NC(=O)[C@H](CCCCN)NC(=O)[C@H](CCC(=O)O)NC(=O)[C@H](CCCCN)NC(=O)[C@H](CCC(=O)O)NC(=O)[C@H](CCC(N)=O)NC(=O)[C@H](CCCCN)NC(=O)[C@H](CCC(=O)O)NC(=O)[C@@H](NC(=O)[C@H](CCC(=O)O)NC(=O)[C@@H](NC(=O)[C@H](CCSC)NC(=O)[C@H](CCCCN)NC(=O)[C@H](CCCNC(=N)N)NC(=O)[C@H](CC(C)C)NC(=O)[C@H](CC(C)C)NC(=O)[C@H](Cc1c[nH]cn1)NC(=O)[C@H](CC(C)C)NC(=O)[C@@H]1CCCN1C(=O)[C@H](CC(C)C)NC(=O)[C@H](CC(=O)O)NC(=O)[C@@H](NC(=O)[C@H](CO)NC(=O)[C@@H](NC(=O)[C@@H]1CCCN1C(=O)[C@@H]1CCCN1C(=O)CNC(=O)[C@@H]1CCC(=O)N1)[C@@H](C)CC)[C@@H](C)CC)[C@@H](C)CC)[C@@H](C)CC)[C@@H](C)O)C(N)=O` [compound 83] was tested, and the EC50 (CRF2R) was 1.91 nM, the Emax (CRF2R) was 81% and the EC50 (CRF1R) was 52.2 nM. For the same compound, the Emax (CRF1R) was 96%.
In the case of `CC[C@H](C)[C@H](NC(=O)[C@H](CCC(=O)O)NC(=O)[C@@H](NC(=O)[C@H](CCSC)NC(=O)[C@H](CCCCN)NC(=O)[C@H](CCCNC(=N)N)NC(=O)[C@H](CC(C)C)NC(=O)[C@H](CC(C)C)NC(=O)[C@H](Cc1ccc(O)cc1)NC(=O)[C@H](CC(C)C)NC(=O)[C@@H]1CCCN1C(=O)[C@H](CC(C)C)NC(=O)[C@H](CC(=O)O)NC(=O)[C@@H](NC(=O)[C@H](CO)NC(=O)[C@@H](NC(=O)[C@@H]1CCCN1C(=O)[C@@H]1CCCN1C(=O)CNC(=O)[C@@H]1CCC(=O)N1)[C@@H](C)CC)[C@@H](C)CC)[C@@H](C)CC)C(=O)N[C@@H](CCC(=O)O)C(=O)N[C@@H](CCCCN)C(=O)N[C@@H](CCC(N)=O)C(=O)N[C@@H](CCC(=O)O)C(=O)N[C@@H](CCCCN)C(=O)N[C@@H](CCC(=O)O)C(=O)N[C@@H](CCCCN)C(=O)N[C@@H](CCC(N)=O)C(=O)N[C@@H](CCC(N)=O)C(=O)N[C@@H](C)C(=O)N[C@H](C(=O)N[C@H](C(=O)N[C@@H](CC(N)=O)C(=O)N[C@@H](C)C(=O)N[C@@H](CCCNC(=N)N)C(=O)N[C@@H](CC(C)C)C(=O)N[C@@H](CC(C)C)C(=O)N[C@@H](CC(=O)O)C(=O)N[C@@H](CCCNC(=N)N)C(=O)N[C@H](C(N)=O)C(C)C)[C@@H](C)O)[C@@H](C)O` [compound 243], the Emax (CRF2R) is reported as 100% and the Emax (CRF1R) is reported as 96%.
`CC[C@H](C)[C@H](NC(=O)[C@@H](NC(=O)[C@H](CC(=O)O)NC(=O)[C@H](CC(C)C)NC(=O)[C@H](CC(C)C)NC(=O)[C@H](CC(C)C)NC(=O)[C@H](CCCNC(=N)N)NC(=O)[C@H](CC(N)=O)NC(=O)[C@H](CC(N)=O)NC(=O)[C@H](C)NC(=O)[C@H](C)NC(=O)[C@H](CCC(N)=O)NC(=O)[C@H](CCC(N)=O)NC(=O)[C@H](CCCCN)NC(=O)[C@H](CCC(=O)O)NC(=O)[C@H](CCCCN)NC(=O)[C@H](CCC(=O)O)NC(=O)[C@H](CCC(N)=O)NC(=O)[C@H](CCCCN)NC(=O)[C@H](CCC(=O)O)NC(=O)[C@@H](NC(=O)[C@H](CCC(=O)O)NC(=O)[C@@H](NC(=O)[C@H](CCSC)NC(=O)[C@H](CCCCN)NC(=O)[C@H](CCCNC(=N)N)NC(=O)[C@H](CC(C)C)NC(=O)[C@H](CC(C)C)NC(=O)[C@H](Cc1c[nH]c2ccccc12)NC(=O)[C@H](CC(C)C)NC(=O)[C@@H]1CCCN1C(=O)[C@H](CC(C)C)NC(=O)[C@H](CC(=O)O)NC(=O)[C@@H](NC(=O)[C@H](CO)NC(=O)[C@@H](NC(=O)[C@@H]1CCCN1C(=O)[C@@H]1CCCN1C(=O)CNC(=O)[C@@H]1CCC(=O)N1)[C@@H](C)CC)[C@@H](C)CC)[C@@H](C)CC)[C@@H](C)CC)[C@@H](C)O)C(N)=O` [compound 218] showed an Emax (CRF2R) of 96% and an Emax (CRF1R) of 100%.
`CC[C@H](C)[C@H](NC(=O)[C@H](CCC(=O)O)NC(=O)[C@@H](NC(=O)[C@H](CCSC)NC(=O)[C@H](CCCCN)NC(=O)[C@H](CCCNC(=N)N)NC(=O)[C@H](CC(C)C)NC(=O)[C@H](CC(C)C)NC(=O)[C@H](CCC(N)=O)NC(=O)[C@H](Cc1ccccc1)NC(=O)[C@@H]1CCCN1C(=O)[C@H](CC(C)C)NC(=O)[C@H](CC(=O)O)NC(=O)[C@@H](NC(=O)[C@H](CO)NC(=O)[C@@H](NC(=O)[C@@H]1CCCN1C(=O)[C@@H]1CCCN1C(=O)CNC(=O)[C@@H]1CCC(=O)N1)[C@@H](C)CC)[C@@H](C)CC)[C@@H](C)CC)C(=O)N[C@@H](CCC(=O)O)C(=O)N[C@@H](CCCCN)C(=O)N[C@@H](CCC(N)=O)C(=O)N[C@@H](CCC(=O)O)C(=O)N[C@@H](CCCCN)C(=O)N[C@@H](CCC(=O)O)C(=O)N[C@@H](CCCCN)C(=O)N[C@@H](CCC(N)=O)C(=O)N[C@@H](CCC(N)=O)C(=O)N[C@@H](C)C(=O)N[C@H](C(=O)N[C@H](C(=O)N[C@@H](CC(N)=O)C(=O)N[C@@H](C)C(=O)N[C@@H](CCCNC(=N)N)C(=O)N[C@@H](CC(C)C)C(=O)N[C@@H](CC(C)C)C(=O)N[C@@H](CC(=O)O)C(=O)N[C@@H](CCCNC(=N)N)C(=O)N[C@H](C(N)=O)C(C)C)[C@@H](C)O)[C@@H](C)O` [compound 22] was tested, and the EC50 (CRF2R) was 8.33 nM, the Emax (CRF2R) was 100% and the EC50 (CRF1R) was ≥ 1000 nM. It also gave an Emax (CRF1R) of 64%.
Compound `CC[C@H](C)[C@H](NC(=O)[C@@H](NC(=O)[C@H](C)NC(=O)[C@H](CC(C)C)NC(=O)[C@H](CC(C)C)NC(=O)[C@H](CC(C)C)NC(=O)[C@H](C)NC(=O)[C@H](CC(N)=O)NC(=O)[C@H](CC(N)=O)NC(=O)[C@H](C)NC(=O)[C@H](C)NC(=O)[C@H](CCC(N)=O)NC(=O)[C@H](CCC(N)=O)NC(=O)[C@H](CCCCN)NC(=O)[C@H](CCC(=O)O)NC(=O)[C@H](CCCCN)NC(=O)[C@H](CCC(=O)O)NC(=O)[C@H](CCC(N)=O)NC(=O)[C@H](CCCCN)NC(=O)[C@H](CCC(=O)O)NC(=O)[C@@H](NC(=O)[C@H](CCC(=O)O)NC(=O)[C@@H](NC(=O)[C@H](CCSC)NC(=O)[C@H](CCCCN)NC(=O)[C@H](CCCNC(=N)N)NC(=O)[C@H](CC(C)C)NC(=O)[C@H](CC(C)C)NC(=O)[C@H](Cc1ccccc1)NC(=O)[C@H](Cc1ccccc1)NC(=O)[C@@H]1CCCN1C(=O)[C@H](CC(C)C)NC(=O)[C@H](CC(=O)O)NC(=O)[C@@H](NC(=O)[C@H](CO)NC(=O)[C@@H](NC(=O)[C@@H]1CCCN1C(=O)[C@@H]1CCCN1C(=O)CNC(=O)[C@@H]1CCC(=O)N1)[C@@H](C)CC)[C@@H](C)CC)[C@@H](C)CC)[C@@H](C)CC)[C@@H](C)O)C(N)=O` [compound 319] has an Emax (CRF2R) of 95% and an Emax (CRF1R) of 88.3%.
